Experimental data: US8790889B2, “Neuronal stimulation” (The University of Queensland, priority 2009, dated 2014)

Tested on: hippocampal precursors
Experiment: Slice-sphere assay (hippocampal organotypic slices, then neurosphere culture)
Type: cell-based, rat
Settings: slices treated at 100 μM
Protocol: Seven day-old Wistar pups were sacrificed under isoflurane-induced anaesthesia, and the brains were isolated and placed in ice-cold Ringer's solution (NaCl, 118 mM; […] The brain was bisected along the sagittal plane and the hippocampi were separated from the overlying cortex. The hippocampi were cut into transverse slices of 300 μm thickness using a tissue slicer (Stoelting, Wood Dale, Ill.). 6-7 slices were then transferred onto a single 0.4 μm Millicell-CM membrane filter (Millipore), and the filters were placed in a 6-well plate containing 1 ml of serum-free NeuroCult NSC basal medium with NeuroCult proliferation supplements (StemCell Technologies) and 2% bovine serum albumin (Invitrogen). D-glucose (Sigma-Aldrich) was added to the medium to a final concentration of 5 mM. Four filters, each containing 6-7 hippocampal slices, were generated from a single animal. Plates were incubated at 37° C. in a humidified 5% CO2 incubator and the slices were cultured for 6 days. To assess the influence of specific compounds on hippocampal precursor proliferation in the slice culture, compounds were added to the complete medium at the doses described below. Two filters were treated with the compounds for each dose per experiment. […] The total number of viable cells in an aliquot was counted on a haemocytometer based on the exclusion of 0.08% trypan blue (Sigma-Aldrich). […]

CCOc1ccccc1OC(c1ccccc1)C1CNCCO1 (stereo not shown) [reboxetine]
increase in neurosphere frequency / precursor activity: > 2.5 fold
